Assay results as given in EP1289507B1, “USE OF AN ALDOSTERONE ANTAGONIST FOR THE TREATMENT OR PROPHYLAXIS OF ALDOSTERONE-MEDIATED PATHOGENIC EFFECTS” (priority 2000, dated 2001).

Test system: captopril-treated, saline-drinking SHRSP
Assay: Protocol 2: Angiotensin II-induced renal damage in captopril-treated saline-drinking SHRSP
Assay type: in vivo, male SHRSP/A3N
Procedure: Animals. Studies were conducted in accordance with institutional guidelines using male SHRSP/A3N (generations F-75 to F-78), n = 37, from our local colony. These animals were bred from NIH stock, derived from the SHRSP/A3N substrain described originally by Okamoto and coworkers (Okamoto K et al. Circ. Res. 34 and 35 (suppl I):I-143-I-153.). All animals were housed in a room maintained on a 12:12-h light:dark-cycle and an ambient temperature of 22 ± 1°C in the Animal Care Facility at New York Medical College. Rats were weaned at 4 weeks of age and allowed free access to Purina Lab Chow 5001 (Ralston Purina, St. Louis, MO) and tap water until the initiation of experimental protocols.
SHRSP were placed on Stroke-Prone Rodent Diet (#39-288, Zeigler Bros Inc., Gardners, PA) and 1% NaCl drinking solution ad libitum starting at 8.3 weeks of age. […] Systolic blood pressure and heart rate were measured each week. […]
Assays and Analyses. Systolic blood pressure and heart rate of awake animals were measured by tail-cuff plethysmography using a Natsume KN-210 manometer and tachometer (Peninsula Laboratories Inc., Belmont, CA). […] Urinary protein concentration was determined by the sulfosalicylic acid turbidity method. Plasma aldosterone was measured by radioimmunoassay using ^125I-aldosterone as a tracer (Coat-a Count Aldosterone, Diagnostic Products Co., Los Angeles, CA). […]

`C[C@H](CS)C(=O)N1CCC[C@H]1C(=O)O` [Captopril, captopril, reference compound] was tested, and the “Preterminal systolic blood pressure” value (captopril plus vehicle, or captopril plus angiotensin II plus eplerenone) was 224 ± 6 mm Hg and the “proteinuria (urinary protein excretion)” value (end of study (2 weeks), captopril 50 mg/kg/d plus vehicle, or captopril plus angiotensin II 25 ng/min plus eplerenone 100 mg/kg/d) was 14 ± 1 mg/day.
